Data: article PMC4057736, “In Vitro Antiprotozoal Activity of Abietane Diterpenoids Isolated from Plectranthus barbatus Andr” (International Journal of Molecular Sciences, 2014)

Columns and labels:
Settings in all cases: versus MRC-5 cytotoxicity
[1] = test system: T. cruzi Tulahuen CL2 (benznidazole-sensitive); assay: Antitrypanosomal activity (Chagas), β-galactosidase readout on MRC-5 cells; type: cell-based, Trypanosoma cruzi
Description: (§1) The integrated panel of microbial screens and standard screening methodologies were adopted as previously described. All assays were performed in triplicate, at the Laboratory of Microbiology, Parasitology and Hygiene at the University of Antwerp, Belgium. […] The selectivity antiprotozoal potential was assessed by simultaneous evaluation of cytotoxicity on a fibroblast (MRC-5) cell line.
(§2) About 1.5 × 10^4 trypomastigotes/well were added to each well and parasite growth was assessed after 72 h at 37 °C by adding resazurin [30]. […] The color reaction was read at 540 nm after 4 h and absorbance values were expressed as a percentage of the blank controls.

[2] = test system: Chloroquine-resistant P. falciparum 2/K 1-strain (erythrocytic schizonts); assay: Antiplasmodial activity (Malstat method); type: cell-based, Plasmodium falciparum
Description: as §1
Chloroquine-resistant P. falciparum 2/K 1-strain was cultured in human erythrocytes O^+ at 37 °C under a low oxygen atmosphere (3% O2, 4% CO2, and 93% N2) in RPMI-1640, supplemented with 10% human serum. Infected human red blood cells (200 μL, 1% parasitaemia, 2% haematocrit) were added to each well and incubated for 72 h. After incubation, test plates were frozen at −20 °C. Parasite multiplication was measured by the Malstat method.

[3] = test system: Trypanosoma brucei Squib-427 strain (suramin-sensitive) trypomastigotes; assay: Antitrypanosomal activity, resazurin readout; type: cell-based
Description: as §1, §2

[4] = test system: L.infantum MHOM/MA(BE)/67 amastigotes; assay: Antileishmanial activity, intracellular amastigotes in primary peritoneal mouse macrophages; type: cell-based, Leishmania infantum
Description: as §1
L.infantum MHOM/MA(BE)/67 amastigotes were collected from the spleen of an infected donor hamster and used to infect primary peritoneal mouse macrophages. To determine in vitro antileishmanial activity, 3 × 10^4 macrophages were seeded in each well of a 96-well plate. After 2 days outgrowth, 5 × 10^5 amastigotes/well were added and incubated for 2 h at 37 °C. Pre-diluted plant extracts were subsequently added and the plates were further incubated for 5 days at 37 °C and 5% CO2. Parasite burdens (mean number of amastigotes/macrophage) were microscopically assessed after Giemsa staining, and expressed as a percentage of the blank controls without plant extract.

Structure (SMILES)	T. cruzi SI (selectivity index) [1]	P. falciparum SI (selectivity index) [2]	T. brucei SI (selectivity index) [3]	L. infantum SI (selectivity index) [4]
CC(C)C1=CC2=C(O)C(O)=C3C(C)(C)CCC[C@]3(C)C2=C(O)C1=O [Compound (2), 5,6-didehydro-7-hydroxy-taxodone]	3.7	10.4	50.5	3.7
CC(C)c1cc2c(c(O)c1O)C13CCCC(C)(C)C1CC2OC3 (centres unmarked) [Compound (4), 20-deoxocarnosol]			1.0	
